Structures can show the parent of a compound that is named as a salt.

Chains of the proteins cited; added tags and fusions are not shown.
UniProt P51685, whole entry: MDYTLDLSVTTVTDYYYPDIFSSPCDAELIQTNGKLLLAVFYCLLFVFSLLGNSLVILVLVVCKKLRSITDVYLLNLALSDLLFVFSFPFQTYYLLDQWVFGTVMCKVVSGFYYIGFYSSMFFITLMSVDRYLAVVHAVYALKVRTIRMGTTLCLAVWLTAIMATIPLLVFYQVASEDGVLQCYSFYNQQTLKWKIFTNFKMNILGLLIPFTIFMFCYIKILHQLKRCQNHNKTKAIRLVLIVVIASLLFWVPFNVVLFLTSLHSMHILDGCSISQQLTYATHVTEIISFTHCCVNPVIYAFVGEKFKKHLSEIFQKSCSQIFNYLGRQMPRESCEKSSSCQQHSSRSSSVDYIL

This note sets out measurements from US20070249648A1, “Novel Diazaspiroalkanes and Their Use for Treatment of Ccr8 Mediated Diseases” (priority 2003, published 2007).

The assay deals with T1, human recombinant chemokine CCR8 receptor (Homo sapiens, UniProt P51685).
T1 construct: purchased Euroscreen ES-136-M; host or cells: CHO-K1 cells (membrane preparation)
The experiment in a line: CCL1 SPA Binding Assay. Here is the method:
Membranes from CHO-K1 cells transfected with human recombinant chemokine CCR8 receptor (ES-136-M) were purchased from Euroscreen. Membrane preparations are stored at −70C in 7.5 mM Tris-Cl pH 7.5, 12.5 mM MgCl2, 0.3 mM EDTA, 1 mM EGTA, 250 mM sucrose until used.
The CCR8 membranes ([…]) were preincubated with Wheat Germ Agglutinin SPA beads (4.05 mg/ml) in assay buffer (50 mM HEPES, 1 mM CaCl2x2H2O, 5 mM MgCl2x6H2O, 75 mM NaCl, 0.1% BSA) at pH=7.4 for 2 hours on ice. A 10-point dose-response curve (final concentrations 50 μM, 16.7 μM, 5.6 μM, 1.9 μM, 0.62 μM, 0.21 μM, 0.069 μM, 0.023 μM) was prepared by diluting compounds by serial dilution 1:3 in DMSO. In the screening plate (Polystyrene NBS plates, Costar Corning 3604) 1 μl from the DMSO solutions of compounds was transferred into each well. 1 μl of DMSO was added to the blank control wells and 1 μl unlabeled CCL1 (300 nM) was added to background control wells. 50 μl of the SPA bead-membrane mixture was added into each well. Finally, 50 μl (30 pM) ^125I CCL1 (2000 Ci/mM) was added to each well. Plates were then incubated at RT with shaking (700 rpm) for 90 minutes followed by 30 minutes at RT without shaking. The plate was read in a Wallac MicroBeta counter for 2 minutes/well.

The IC50 is the concentration at which inhibition is half-maximal. Turning to `O=C(c1ccc(Cl)cc1)N1CCC2(CCN(Cc3ccccc3Oc3ccccc3)CC2)CC1` [3-(4-chlorobenzoyl)-9-(2-phenoxybenzyl)-3,9-diazaspiro[5.5]undecane trifluoroacetate], the IC50 amounted to 81 nM.
